Measurements as given in ChEMBL document CHEMBL1156873, “Pyrazolopyrimidines as highly potent and selective, ATP-competitive inhibitors of the mammalian target of rapamycin (mTOR): optimization of the 1-substituent” (Bioorg Med Chem Lett, 2010).

Experiment: Selectivity ratio of IC50 for PI3Kalpha to IC50 for mTOR

Row | Ratio IC50 | Structure (SMILES)
1 | 364 | CCn1ncc2c(N3CC4CCC(C3)O4)nc(-c3ccc(NC(=O)NC)cc3)nc21
2 | 2140 | CNC(=O)Nc1ccc(-c2nc(N3CC4CCC(C3)O4)c3cnn([C@H]4CC[C@@H](OC)CC4)c3n2)cc1
3 | 305 | CNC(=O)Nc1ccc(-c2nc(N3CC4CCC(C3)O4)c3cnn(C4CCC5(CC4)OCCCO5)c3n2)cc1
4 | 875 | CNC(=O)Nc1ccc(-c2nc(N3CC4CCC(C3)O4)c3cnn(C4CCC(OC)(OC)CC4)c3n2)cc1
5 | 1950 | CNC(=O)Nc1ccc(-c2nc(N3CC4CCC(C3)O4)c3cnn(C(C)C)c3n2)cc1
6 | 3080 | CNC(=O)Nc1ccc(-c2nc(N3CC4CCC(C3)O4)c3cnn([C@H]4CC[C@H](OC)CC4)c3n2)cc1
7 | 184 | CNC(=O)Nc1ccc(-c2nc(N3CC4CCC(C3)O4)c3cnn(C)c3n2)cc1
8 | 10600 | CNC(=O)Nc1ccc(-c2nc(N3CC4CCC(C3)O4)c3cnn(C4CCN(C(=O)OC(C)C)CC4)c3n2)cc1

The next lines start with the compound.

Row | Structure (SMILES) | Ratio IC50
9 | CNC(=O)Nc1ccc(-c2nc(N3CC4CCC(C3)O4)c3cnn(CCN(C)C)c3n2)cc1 | 66
10 | O=C(Nc1ccc(-c2nc(N3CC4CCC(C3)O4)c3cnn(C4CCC5(CC4)OCCO5)c3n2)cc1)NC1CC1 | 54500
11 | CCNC(=O)Nc1ccc(-c2nc(N3CC4CCC(C3)O4)c3cnn(C4CCC5(CC4)OCCO5)c3n2)cc1 | 17600
12 | O=C(Nc1ccncc1)Nc1ccc(-c2nc(N3CC4CCC(C3)O4)c3cnn(C4CCC5(CC4)OCCO5)c3n2)cc1 | 1830
13 | O=C(NCCF)Nc1ccc(-c2nc(N3CC4CCC(C3)O4)c3cnn(C4CCC5(CC4)OCCO5)c3n2)cc1 | 23300
14 | O=C(Nc1ccccc1)Nc1ccc(-c2nc(N3CC4CCC(C3)O4)c3cnn(C4CCC5(CC4)OCCO5)c3n2)cc1 | 2210
15 | O=C(Nc1ccc(-c2nc(N3CC4CCC(C3)O4)c3cnn(C4CCC5(CC4)OCCO5)c3n2)cc1)Nc1cccnc1 | 2250
16 | CNC(=O)Nc1ccc(-c2nc(N3CC4CCC(C3)O4)c3cnn(CCO)c3n2)cc1 | 132
